1 compound from PubChem BioAssay AID588690 (Broad Institute, 2011) can be followed below.

The chains behind the UniProt entries cited, without tags or fusion partners. Where a name states a change or a piece, a line headed by the entry shows the natural chain unless it says otherwise.
UniProt P13346: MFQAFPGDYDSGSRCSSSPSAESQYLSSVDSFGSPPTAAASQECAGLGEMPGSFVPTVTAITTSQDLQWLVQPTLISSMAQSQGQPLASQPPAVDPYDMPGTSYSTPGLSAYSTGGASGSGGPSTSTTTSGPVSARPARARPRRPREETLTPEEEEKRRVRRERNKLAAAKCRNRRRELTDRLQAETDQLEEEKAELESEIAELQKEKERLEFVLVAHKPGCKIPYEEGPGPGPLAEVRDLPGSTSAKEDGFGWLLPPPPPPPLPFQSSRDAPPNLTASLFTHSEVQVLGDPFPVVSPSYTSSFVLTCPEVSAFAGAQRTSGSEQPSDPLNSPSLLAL

Some of the results follow. Active and inactive are the calls of the source.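 The calls were made as follows: active = highest replicate activation at or above 34% and every replicate reaching that threshold; inconclusive = meets only one of the two criteria; inactive = meets neither criterion.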

In the test the target is Protein FosB (Mus musculus) (UniProt P13346). Kind of test: activators of mouse delta FosB DNA binding, confirmation, biochemical, fluorescence polarization, TAMRA-CDK5 oligo, cherry-picked samples (AID 588690).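 Also: higher polarization means more probe DNA bound by delta FosB.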 The settings on record: purified delta FosB, at 24.9 µM, active compounds read high, normalised: neutral wells 0, positive control 100.
As to `CCC1=CC2Cc3nc4ccc(Cl)cc4c(N)c3C(C1)C2` (stereo unspecified), the activation is inactive: 10.1%.
